PubChem BioAssay AID834 (PCMD, 2007)
This is a selection; strong and weak results do not stand in their true shares. The source made the active and inactive calls.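 How the source made its calls: active means inhibition above 20%; inactive means inhibition below 20%.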

assay: clotrimazole potentiators killing Candida biofilms, primary screen, with clotrimazole, Alamar Blue (AID 834);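 further: preformed 24 hr biofilms exposed to compound for 48 hr; 0% = biofilm without compound and 100% = blank killed by clotrimazole plus chlorhexidine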; details: C. albicans biofilm + clotrimazole, at 6 µM, active compounds read high

Compound	inhibition
CP(=O)(OC12CC3CC(CC(C3)C1)C2)OC12CC3CC(CC(C3)C1)C2	inactive: 7.33%
COc1ccccc1OP(C)(=O)Nc1c(C)n(C)n(-c2ccccc2)c1=O (stereo not given)	inactive: 6%
CP(=O)(Oc1ccccc1)N1CCOC1=O (stereo not given)	inactive: 11.1%
CC(C)(C)c1ccc(OP(C)(=O)O)cc1	inactive: 4.37%
CP(=O)(Nc1ccc(Cl)cc1)Oc1ccc(F)cc1 (stereo not given)	inactive: 12.8%
COc1ccc(OP(C)(=O)Nc2ccccn2)cc1 (stereo not given)	inactive: 1.67%
CN(C)CCOC(=O)C(O)(c1ccccc1)C1CCCC1 (stereo not given)	inactive: 4.39%
CP(=O)(Nc1ccccn1)Oc1ccccc1 (stereo not given)	inactive: 3.95%
COc1ccccc1OP(C)(=O)Nc1ccc(C)cc1C (stereo not given)	inactive: 1.82%
CCc1ccc(OP(C)(=O)O)cc1	inactive: 4.77%
Cc1c(NP(C)(=O)Oc2ccc(C(C)C)cc2)c(=O)n(-c2ccccc2)n1C (stereo not given)	inactive: 1.76%
COc1ccccc1OP(C)(=O)Nc1ccc(C)c(C)c1 (stereo not given)	inactive: 5.12%
CP(=O)(Nc1ccccc1)Oc1ccc(F)cc1 (stereo not given)	inactive: 4.8%
CCN(CC)CCCOC(=O)C(O)(c1ccccc1)C1CCCCC1 (stereo not given)	inactive: 8.45%
CP(=O)(Nc1ccccc1F)Oc1ccccc1 (stereo not given)	inactive: 8.18%
CCOP(C)(=S)SCC(=O)NC(C)(CC)C(=O)O (stereo not given)	inactive: 4.66%
Cc1ccccc1NP(C)(=O)Nc1ccccc1C	inactive: 5.88%
CP(=O)(Nc1ccc2c(c1)OCCO2)Oc1ccccc1 (stereo not given)	inactive: 8.04%
CN(C)CCOC(=O)C(O)(c1ccccc1)C1CCCCC1 (stereo not given)	inactive: 9.22%
COc1ccccc1OP(C)(=O)Nc1c(C)cccc1C (stereo not given)	inactive: 4.64%
Cc1nc2ccc3ccccc3c2s1.O=[N+]([O-])c1cc([N+](=O)[O-])c(O)c([N+](=O)[O-])c1	inactive: 7.96%
Cc1cc(C)cc(OP(C)(=O)Nc2ccc(C)cc2C)c1 (stereo not given)	inactive: -7.43%
Cc1ccc(C)c(NP(C)(=O)Oc2ccccc2)c1 (stereo not given)	inactive: 11.7%
Cc1cc(C)cc(OP(C)(=O)Nc2ccccn2)c1 (stereo not given)	inactive: -0.19%
COc1ccc(OP(C)(=O)Nc2cccc(F)c2)cc1 (stereo not given)	inactive: 8.59%
COc1ccccc1OP(C)(=O)Nc1ccc(C)cc1 (stereo not given)	inactive: 6.8%
Cc1ccc(NP(C)(=O)Oc2ccccc2)c(C)c1 (stereo not given)	inactive: 3.46%
CP(=O)(Nc1ccccn1)Oc1ccc(Cl)cc1 (stereo not given)	inactive: -1.39%
CCOP(C)(=S)SCC(=O)NC(C)C(=O)O (stereo not given)	inactive: 2.33%
CP(=S)(Nn1cnnc1)Oc1ccccc1 (stereo not given)	inactive: -5.12%
